Our source for the Release rate values is patent publication US20240398963A1 (priority 2021, published 2024).

The format of the data set is physicochemical. The conditions noted are these: 10 mM PBS buffer (pH=7.4), 37° C., 100 rpm shaker; free drug by HPLC, average release per day. Here is the method: The drug release and stability experiments were run using the test compounds. About 2.5±1.0 mg/mL (with regard to conjugate) solution of each test compound was prepared with 10 mM PBS buffer (pH=7.4) in Millipore Amicon® Ultra-0.5 ml 30 k Ultrafiltration centrifuge tube. The solution was kept swelling for 1 h at room temperature and then placed in a shaker at 100 rpm, 37° C. for continuous experiment. At the same time point of each day, samples were centrifuged at 10000 rpm for 1 h. The aliquot was transferred to HPLC vial for analysis. An 0.4 mL of 10 mM PBS buffer was added into the centrifuge tube and continue the experiment.
For the HPLC analysis at each time point, the peak areas of all relevant peaks from the chromatograms were retrieved and the concentration of free drug was calculated. Average release of free drug was calculated based on the sum of free drug and numbers of experiment days. The computing equation is as below.
The sample degradation rate was calculated based on the concentration and degree of substitution (NMR) for conjugated drug with regard to the initial starting point of the experiment (at t=0). The computing equation is as below.
On to “Conjugate of CS and 2-((8S,9S,10R,11S,13S,14S,17R)-11,17-dihydroxy-10,13-dimethyl-3-oxo-6,7,8,9,10,11,12,13,14,15,16,17-dodecahydro-3H-cyclopenta[a]phenanthren-17-yl)-2-oxoethyl 4-aminobutanoate [Example 37]”, for which the Release rate came to 1.17 %/day.
As to “Conjugate of HA and 2-(2-aminoethoxy)ethyl (2-((6αS,6βR,7S,8αS,8βS,11αR,12αS,12βS)-6β-fluoro-7-hydroxy-6α,8α,10,10-tetramethyl-4-oxo-1,2,4,6α,6β,7,8,8α,11α,12,12α,12β-dodecahydro-8βH-naphtho[2′,1′:4,5]indeno[1,2-d][1,3]dioxol-8β-yl)-2-oxoethyl) carbonate [Example 32]”, the Release rate was 3.68 %/day.
Under “Conjugate of HA and 2-((2S,6αS,6βR,7S,8αS,8βS,11αR,12αS,12βS)-2,6β-difluoro-7-hydroxy-6α,8α,10,10-tetramethyl-4-oxo-1,2,4,6α,6β,7,8,8α,11α,12,12α,12β-dodecahydro-8βH-naphtho[2′,1′:4,5]indeno[1,2-d][1,3]dioxol-8β-yl)-2-oxoethyl 3-aminopropanoate [Example 12]” stands 3.30 %/day; under “Conjugate of HA and 2-((2S,6αS,6βR,7S,8αS,8βS,11αR,12αS,12βS)-2,6β-difluoro-7-hydroxy-6α,8α,10,10-tetramethyl-4-oxo-1,2,4,6α,6β,7,8,8α,11α,12,12α,12β-dodecahydro-8βH-naphtho[2′,1′:4,5]indeno[1,2-d][1,3]dioxol-8β-yl)-2-oxoethyl 4-(aminomethyl)benzoate [Example 22]”, 0.40 %/day; under “Conjugate of HA and 2-((2S,6αS,6βR,7S,8αS,8βS,11αR,12αS,12βS)-2,6β-difluoro-7-hydroxy-6α,8α,10,10-tetramethyl-4-oxo-1,2,4,6α,6β,7,8,8α,11α,12,12α,12β-dodecahydro-8βH-naphtho[2′,1′:4,5]indeno[1,2-d][1,3]dioxol-8β-yl)-2-oxoethyl 5-aminopentanoate [Example 24]”, 1.64 %/day.
With “Conjugate of HA and 2-((2S,6αS,6βR,7S,8αS,8βS,11αR,12αS,12βS)-2,6β-difluoro-7-hydroxy-6α,8α,10,10-tetramethyl-4-oxo-1,2,4,6α,6β,7,8,8α,11α,12,12α,12β-dodecahydro-8βH-naphtho[2′,1′:4,5]indeno[1,2-d][1,3]dioxol-8β-yl)-2-oxoethyl piperidine-4-carboxylate [Example 21]” the figure was 2.05 %/day; with “Conjugate of HA and 2-((6αS,6βR,7S,8αS,8βS,11αR,12αS,12βS)-6β-fluoro-7-hydroxy-6α,8α,10,10-tetramethyl-4-oxo-1,2,4,6α,6β,7,8,8α,11α,12,12α,12β-dodecahydro-8βH-naphtho[2′,1′:4,5]indeno[1,2-d][1,3]dioxol-8β-yl)-2-oxoethyl 2-(2-aminoethoxy)acetate [Example 28]”, 16.89 %/day; with “Conjugate of HA and 2-((6αS,6βR,7S,8αS,8βS,11αR,12αS,12βS)-6β-fluoro-7-hydroxy-6α,8α,10,10-tetramethyl-4-oxo-1,2,4,6α,6β,7,8,8α,11α,12,12α,12β-dodecahydro-8βH-naphtho[2′,1′:4,5]indeno[1,2-d][1,3]dioxol-8β-yl)-2-oxoethyl 3-aminopropanoate [Example 5]”, 4.03 %/day.
For the substance “Conjugate of HA and 2-((6αS,6βR,7S,8αS,8βS,11αR,12αS,12βS)-6β-fluoro-7-hydroxy-6α,8α,10,10-tetramethyl-4-oxo-1,2,4,6α,6β,7,8,8α,11α,12,12α,12β-dodecahydro-8βH-naphtho[2′,1′:4,5]indeno[1,2-d][1,3]dioxol-8β-yl)-2-oxoethyl 4-(aminomethyl)benzoate [Example 13]”, the Release rate worked out at 0.14 %/day.
